Test results published in US11419866B2, “Pharmaceutical composition for sustained release delivery of buprenorphine” (Foresee Pharmaceuticals Co., Ltd., priority 2018, dated 2022).

Experiment: Benzaldehyde formation from benzyl alcohol with antioxidants (summary statements)
Settings: in the presence of MTG

SMILES | benzaldehyde production with added chemical stabilizer
O=C1O[C@H]([C@@H](O)CO)C(O)=C1O | significantly reduced
O=C(O)CCP(CCC(=O)O)CCC(=O)O | benzyl aldehyde formation still occurs
